{
  "source": "paper PMC5995905",
  "about": "“Confirmation of high-throughput screening data and novel mechanistic insights into VDR-xenobiotic interactions by orthogonal assays” (Scientific Reports, 2018)",
  "note": "Where a name gives a salt, the structure may show the parent alone.",
  "data": [
    {"target": "T1, VDR:RXR, VDR:SRC-1 and VDR:NCoR interactions (Homo sapiens, UniProt P11473)", "T1 sequence (P11473 1-427)": "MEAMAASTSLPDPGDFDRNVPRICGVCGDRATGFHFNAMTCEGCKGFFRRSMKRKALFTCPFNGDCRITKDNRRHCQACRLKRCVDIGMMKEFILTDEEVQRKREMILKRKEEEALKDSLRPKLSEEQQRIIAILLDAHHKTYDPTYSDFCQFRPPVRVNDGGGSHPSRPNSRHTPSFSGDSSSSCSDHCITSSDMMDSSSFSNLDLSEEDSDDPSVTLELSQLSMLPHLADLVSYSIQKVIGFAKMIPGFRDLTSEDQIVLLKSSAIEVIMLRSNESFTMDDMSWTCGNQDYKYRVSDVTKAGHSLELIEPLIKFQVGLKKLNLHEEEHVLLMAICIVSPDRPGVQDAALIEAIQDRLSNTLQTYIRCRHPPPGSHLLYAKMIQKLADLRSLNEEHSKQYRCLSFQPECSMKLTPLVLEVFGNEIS", "assay": "Mammalian 2-hybrid assay, summary in words of VDR coregulator interactions", "format": "cell-based", "conditions": "agonists; with or without co-transfected full length RXR or SRC-1", "values": [
      {"molecule": "C=C1/C(=C\\C=C2/CCC[C@]3(C)[C@@H]([C@H](C)/C=C/[C@@H](O)C4CC4)CC[C@@H]23)C[C@@H](O)C[C@@H]1O", "note": "[Calcipotriol, reference compound]", "pattern of VDR:coregulator interaction facilitated by the ligand": "Interaction between VDR:RXR and VDR:SRC-1 both in the presence and absence of co-transfected full length RXR and SRC-1"},
      {"molecule": "Cc1cc(=O)oc2cc(N(C)C)ccc12", "note": "[7-(Dimethylamino)-4-methylcoumarin]", "pattern of VDR:coregulator interaction facilitated by the ligand": "did not facilitate VDR:RXR or VDR:SRC-1 interactions under any condition"},
      {"molecule": "Cc1cc(Cc2cc(C)cc(C(C)(C)C)c2O)c(O)c(C(C)(C)C)c1", "note": "[2,2′-methylenebis(6-tert-butyl-4-methylphenol)]", "pattern of VDR:coregulator interaction facilitated by the ligand": "Interaction between VDR:RXR and VDR:SRC-1 both in the presence and absence of co-transfected full length RXR and SRC-1"},
      {"molecule": "Nc1nc(N)c2nc(-c3ccccc3)c(N)nc2n1", "note": "[Triamterene, reference compound]", "pattern of VDR:coregulator interaction facilitated by the ligand": "Interaction between VDR:RXR and VDR:SRC-1 both in the presence and absence of co-transfected full length RXR and SRC-1"},
      {"molecule": "O=S(=O)(O)c1ccc2ccc(S(=O)(=O)O)cc2c1", "note": "[2,7 Naphthalene disulfonic acid]", "pattern of VDR:coregulator interaction facilitated by the ligand": "did not facilitate VDR:RXR or VDR:SRC-1 interactions under any condition"},
      {"molecule": "CCc1cc(Cc2cc(CC)cc(C(C)(C)C)c2O)c(O)c(C(C)(C)C)c1", "note": "[2,2′-methylenebis(6-tert-butyl-4-ethylphenol)]", "pattern of VDR:coregulator interaction facilitated by the ligand": "Interaction between VDR:RXR only in the absence of full length SRC-1"},
      {"molecule": "COC(=O)c1nc(Cl)c(Cl)nc1N", "note": "[Methyl 3-amino-5,6-dichloropyrazine-2-carboxylate]", "pattern of VDR:coregulator interaction facilitated by the ligand": "Interaction between VDR:SRC-1 only in the presence of co-transfected RXR"}
    ]},
    {"target": "T1, VDR:RXR, VDR:SRC-1 and VDR:NCoR interactions", "assay": "Mammalian 2-hybrid assay, summary in words of VDR coregulator interactions", "format": "cell-based", "conditions": "antagonists; with or without co-transfected full length RXR or SRC-1", "values": [
      {"molecule": "CC(C)C[C@H](NC(=O)[C@H](CCc1ccccc1)NC(=O)CN1CCOCC1)C(=O)N[C@@H](Cc1ccccc1)C(=O)N[C@@H](CC(C)C)C(=O)[C@@]1(C)CO1", "note": "[Carfizomib, reference compound]", "pattern of change of 1,25D3 induced VDR:coregulator interaction": "enhanced the interaction between VDR:SRC-1 only in the presence of co-transfected RXR"},
      {"molecule": "Cc1cc(O)c2ccccc2c1O", "note": "[Menadiol, reference compound]", "pattern of change of 1,25D3 induced VDR:coregulator interaction": "selectively inhibit VDR:RXR interactions only in the absence of full length wild type SRC-1"}
    ]},
    {"target": "T2, VDR:NCoR (Homo sapiens, UniProt P11473)", "T2 sequence (P11473 1-427)": "T1 sequence (P11473 1-427)", "assay": "Mammalian 2-hybrid assay, recruitment of corepressor NCoR by VDR, Cos7 cells", "conditions": "not given", "values": [
      {"molecule": "C[C@@H]1O[C@@H](O[C@@H]2C=C3CC[C@@H]4[C@H](CC[C@]5(C)[C@@H](c6ccc(=O)oc6)CC[C@]45O)[C@@]3(C)CC2)[C@H](O)[C@H](O)[C@H]1O", "note": "[Proscillaridin, reference compound]", "Fold Change (pMNCoR + RXRα)": 1.6},
      {"molecule": "O=C1C(Cl)=C(Cl)C(=O)c2ccccc21", "note": "[Dichlone]", "Fold Change (pMNCoR + RXRα)": 1},
      {"molecule": "Cadmium reference solution", "Fold Change (pMNCoR + RXRα)": 0.8},
      {"molecule": "COc1cccc2c1cc([N+](=O)[O-])c1c(C(=O)O)cc3c(c12)OCO3", "note": "[Aristolochic acid]", "Fold Change (pMNCoR + RXRα)": 11.4},
      {"molecule": "O=C(O)CCCc1ccc(N(CCCl)CCCl)cc1", "note": "[Chlorambucil, reference compound]", "Fold Change (pMNCoR + RXRα)": 1},
      {"molecule": "[Cl][Cd][Cl]", "note": "[Cadmium chloride]", "Fold Change (pMNCoR + RXRα)": 0.5},
      {"molecule": "CN(C)C(=S)SSC(=S)N(C)C", "note": "[Thiram]", "Fold Change (pMNCoR + RXRα)": 1}
    ]},
    {"target": "T2, VDR:NCoR", "assay": "Mammalian 2-hybrid assay, recruitment of corepressor NCoR by VDR, Cos7 cells", "conditions": "agonists; +RXR; fold induction compared to DMSO; 9 aminoacridine at 50 μM in Fig 5", "units": {"Fold Change (pMNCoR + RXRα)": "fold"}, "values": [
      {"molecule": "Cl.Nc1c2ccccc2nc2ccccc12", "note": "[9 Aminoacridine monohydrochloride]", "Fold Change (pMNCoR + RXRα)": 53.1}
    ]},
    {"target": "T2, VDR:NCoR", "assay": "Mammalian 2-hybrid assay, recruitment of corepressor NCoR by VDR, Cos7 cells", "conditions": "antagonists; -RXR; normalized to DMSO set to 1; conc. in Fig 6: K dicyanoaurate 6, proscillaridin, aristolochic acid 12, thiram 1 μM", "units": {"Fold Change (pMNCoR + EpSG5)": "fold"}, "values": [
      {"molecule": "Nc1ccc2cc3ccc(N)cc3nc2c1", "note": "[Proflavine hydrochloride]", "Fold Change (pMNCoR + EpSG5)": 1.3},
      {"molecule": "C[C@]1(Cn2ccnn2)[C@H](C(=O)O)N2C(=O)C[C@H]2S1(=O)=O", "note": "[Tazobactam sodium, reference compound]", "Fold Change (pMNCoR + EpSG5)": 1.7},
      {"molecule": "O=C([O-])c1ccccc1-c1c2ccc(=O)cc-2oc2cc([O-])ccc12.[Na+].[Na+]", "note": "[Fluorescein sodium, reference compound]", "Fold Change (pMNCoR + EpSG5)": 1.2},
      {"molecule": "CC(C)C[C@H](NC(=O)[C@H](CCc1ccccc1)NC(=O)CN1CCOCC1)C(=O)N[C@@H](Cc1ccccc1)C(=O)N[C@@H](CC(C)C)C(=O)[C@@]1(C)CO1", "note": "[Carfizomib, reference compound]", "Fold Change (pMNCoR + EpSG5)": 1.1}
    ]}
  ]
}
